In PubChem BioAssay AID504660 (National Center for Advancing Translational Sciences (NCATS), 2011):
“And” between values parts separate entries of the source, which are not always exact repeats. Equal values may be shown once. This is a selection; strong and weak results do not stand in their true shares. Some tests of the compounds listed are not included; inactive here does not mean inactive elsewhere. The source made the active and inactive calls. No stated cut-off is given here; in the data, active means activation above about 30%; inactive means the rest.

Amino acid sequences for entries named in this document (tags omitted).
UniProt P21728, whole entry: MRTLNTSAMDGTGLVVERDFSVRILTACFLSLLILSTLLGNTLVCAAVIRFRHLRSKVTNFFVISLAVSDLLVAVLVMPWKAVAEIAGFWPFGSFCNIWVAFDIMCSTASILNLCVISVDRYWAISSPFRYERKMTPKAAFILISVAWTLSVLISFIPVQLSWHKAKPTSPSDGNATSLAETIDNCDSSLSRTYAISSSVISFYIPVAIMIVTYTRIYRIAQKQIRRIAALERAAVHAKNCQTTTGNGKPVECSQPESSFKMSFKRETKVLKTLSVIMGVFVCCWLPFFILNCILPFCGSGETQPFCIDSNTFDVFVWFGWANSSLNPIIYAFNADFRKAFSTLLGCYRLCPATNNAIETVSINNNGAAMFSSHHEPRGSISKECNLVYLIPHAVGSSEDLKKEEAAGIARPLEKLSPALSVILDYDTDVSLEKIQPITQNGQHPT

target: D(1A) dopamine receptor (Homo sapiens) (UniProt P21728); experiment: Allosteric Agonists of the Human D1 Dopamine Receptor: qHTS; conditions: HEK293 T-REx D1 cells, calcium flux, agonist mode; at 2 µM; stronger effect = higher value; further: 0% is about no effect
Excerpt: NIH Chemical Genomics Center [NCGC] NIH Molecular Libraries Probe Centers Network [MLPCN] MLPCN Grant: NS064831-01 Assay Submitter (PI): David Sibley Dopamine receptors (DARs) are involved in the etiology and/or therapy of a number of neuropsychiatric and endocrine disorders. For instance, all receptor-based antiparkinsonian drugs work via stimulating the D1 DAR subtype whereas all FDA-approved antipsychotic agents are antagonists of this receptor. […] There are three different types of allosteric modulators that we are seeking, two of which will stimulate or augment receptor signaling, allosteric agonists and potentiators, while the third, allosteric antagonists, will attenuate receptor signaling. The present primary screening assay measures compound agonism by tracking calcium flux in a […], inducible Hek293 Trex D1 cell line.
Freshly passaged cells are plated in 1536 well black, clear bottom plates at a density of 4000 cells/well in 3 ul of complete media containing 1x tetracycline inducer. After an overnight incubation at […] in 5% CO2, cells are loaded with 2 ul of the no wash Calcium Assay Kit (ABD Bioquest) and incubated at room temperature for 30 to 90 minutes. Agonist read: A 10 cycle (1 second/cycle) baseline measurement is taken and then the FDSS online 1536 pintool delivers 23 nl of compound library (as well as dopamine controls) to the plate. The plate is measured for kinetically at 1 cycle/sec for 180 seconds and is considered to be the agonist portion of the assay (eg, compounds which activate a positive calcium response during this portion are flagged as potential agonists). Following the 180 second read, 1 ul of either an EC20 (positive modulation assay) or EC80 (negative modulation assay) is delivered by an onboard pipette head. Measurements are taken kinetically for an additional 180 seconds.

| SMILES | activation |
| --- | --- |
| CN(C)C1(CNC(=O)c2ccc(Br)cc2)CCCCC1 | inactive: 11.1% |
| COc1cc(C(=O)NCC2(N(C)C)CCCCC2)c([N+](=O)[O-])cc1OC | inactive: 1.02% |
| COc1cccc(C(=O)NCC2(N3CCCCC3)CCCCC2)c1 | inactive: 3.69% |
| COc1ccc(Cl)cc1C(=O)NCC1(N(C)C)CCCCC1 | inactive: 2.47% |
| COc1ccc(C(=O)NCC2(N(C)C)CCCCC2)cc1Cl | inactive: -0.29% |
| O=C(NCC1(N2CCCCC2)CCCCC1)c1cccc(Cl)c1 | inactive: 1.51% |
| COc1cccc(C(=O)NCC2(N3CCOCC3)CCCCC2)c1 | inactive: -0.963% |
| O=C(OC1CN2CCC1CC2)C(CO)(c1ccccc1)c1ccccc1 (centres undefined) | inactive: 1.31% |
| CC(C)COc1ccc(C(=O)NCC2(N(C)C)CCCCC2)cc1 | inactive: 13.3% |
| Cc1cccc(C(=O)NCC2(N(C)C)CCCCC2)c1 | inactive: 2.23% |
| COc1cc(C(=O)NCC2(N(C)C)CCCCC2)cc(OC)c1OC | inactive: 0.379% |
| COc1ccc(Br)c(C(=O)NCC2(N3CCCCC3)CCCCC2)c1 | inactive: 2.34% |
| CC(C)Oc1ccc(C(=O)NCC2(N(C)C)CCCCC2)cc1 | inactive: 1.25% and inactive: 19.4% |
| CN(C)c1cccc(C(=O)NCC2(N(C)C)CCCCC2)c1 | inactive: -0.44% |
| O=C(NCC1(N2CCCCC2)CCCCC1)c1cc([N+](=O)[O-])ccc1Cl | inactive: 0.237% |
| CN1[C@@H]2CC[C@H]1CC(OC(=O)C(O)(c1ccccc1)c1ccccc1)C2 (some centres undefined) | inactive: 8.33% |
| CCN(CC)CC(C)C(C)OC(=O)C(O)(c1ccccc1)c1ccccc1 (centres undefined) | inactive: 1.74% |

| SMILES | activation |
| --- | --- |
| CN(C)C1(CNC(=O)c2cccc(Cl)c2)CCCCC1 | inactive: 1.95% |
| COc1cc(SC)ccc1C(=O)NCC1(N(C)C)CCCCC1 | inactive: 1.16% |
| CC(C)N1C(=O)CC2(CCN(CCOC(=O)C(O)(c3ccccc3)c3ccccc3)CC2)C1=O | inactive: 4.76% |
| Cc1ccc(C(=O)NCC2(N3CCCCC3)CCCCC2)cc1 | inactive: 0.0574% |
| CN(C)C1(CNC(=O)c2ccccc2F)CCCCC1 | inactive: 1.24% |
| CN(C)C1(CNC(=O)c2ccccc2[N+](=O)[O-])CCCCC1 | inactive: 0.25% |
| Cc1ccccc1C(=O)NCC1(N2CCCCC2)CCCCC1 | inactive: -0.331% |
| CN(C)C1CCCC1OC(=O)C(O)(c1ccccc1)c1ccccc1 (centres undefined) | inactive: 14% |
| CN(C)c1ccc(C(=O)NCC2(N(C)C)CCCCC2)cc1 | inactive: -1.22% |
| CCCCOc1ccccc1C(=O)NCC1(N(C)C)CCCCC1 | inactive: 0.175% |
| C=CCN1CCN(CCOC(=O)C(O)(c2ccccc2)c2ccccc2)CC1 | inactive: 2.95% |
| O=C(NCC1(N2CCCCC2)CCCCC1)c1cc(F)c(F)cc1Cl | inactive: 4.7% |
| COc1ccc(C(=O)NCC2(N(C)C)CCCCC2)cc1 | inactive: 5.64% |
| CCOc1cccc(C(=O)NCC2(N(C)C)CCCCC2)c1 | inactive: -0.314% |
| Cc1cc(C(=O)NCC2(N3CCCCC3)CCCCC2)ccc1[N+](=O)[O-] | inactive: 2.84% |
| CCN1CCCC(OC(=O)C2(O)c3ccccc3C=Cc3ccccc32)C1 (centres undefined) | inactive: 4.04% |
| O=C(NCC1(N2CCCCC2)CCCCC1)c1cccc(Br)c1 | inactive: -0.283% |
